Laboratory results: patent publication US20230023414A1, “METHODS AND DEVICES FOR TREATING A DISEASE WITH BIOTHERAPEUTICS” (PROGENITY, INC., priority 2018, published 2023)
Like-named read-outs stand apart in the source and are kept apart here.

Key:
[1] = Pharmacokinetics (blood insulin) of regular human insulin (NOVOLIN R) after subcutaneous or intra-jejunal jet delivery in swine; assay type: in vivo, Yorkshire female swine; conditions: individual animals
Method: A study was carried out to compare the pharmacokinetics (PK) and pharmacodynamics (PD) of regular human insulin (NOVOLIN® R) in swines after subcutaneous (SC) administration or intra-jejunal (IJ) administration via a single nozzle jet delivery device.
A total of 18 Yorkshire female swine in good health and weighing 60-70 kg each were included in this study. Swine were divided into two groups with 9 animals per group. All 9 animals in group 01 were administered a single subcutaneous injection of insulin aspart (NOVOLIN® R) (˜40 U) on one side of the neck at a depth of ˜5 mm. A sham surgical laparotomy was performed. All 9 animals in group 02 were administrated regular human insulin (NOVOLIN® R) (˜40 U) delivered in the proximal jejunum by a jet delivery device placed by surgical laparotomy. The jet delivery device was configured with the single nozzle in an axial orientation. […]
Blood samples were kept on wet ice until centrifugation and separation of plasma. […] Glucose was monitored every five (5) minutes during the study by portable glucose analyzer (StatStrip (SS) hospital glucose monitoring system (Nova Biomedical, Waltham, Mass.)). At each time point, approximate 0.1 mL of blood was drawn and immediately placed on a glucose monitoring test strip, and the whole blood glucose concentration was measured by the SS in triplicate. […]

[2] = cited from earlier work

Substance: Novolin® R: regular human insulin (recombinant), aqueous solution 100 units/mL with glycerol, metacresol, zinc chloride, pH 7.4
- Tmax ([1]; IJ administration by jet delivery device): 1.25 h
- Tmax ([1]; SC administration): 1.25 h

Substance: abatacept
- Approved Dosing Info: Bio Avail ([2]; SC administration): 79%

Substance: interferon beta-1a
- Approved Dosing Info: Bio Avail ([2]; IM administration): 40%
